According to patent US8937089B2, “Synergistic mixtures of anthranilamide invertebrate pest control agents” (priority 2004, dated 2015):

Experiments:
Conditions in all cases: in vivo
[1] = test system: silverleaf whitefly (Bemisia argentifolii Bellows and Perring)
Excerpt: For evaluating control of silverleaf whitefly (Bemisia argentifolii Bellows and Perring) through contact and/or systemic means, each test unit consisted of a small open container with a 12- to 14-day-old cotton plant inside. This was pre-infested by placing test units into cages infested with adult whiteflies so that oviposition on the cotton leaves could occur. The adults were removed from the plants with an air-blast nozzle, and the test units were capped. The test units were then stored 2 to 3 days before spraying.
(§1) Test compounds were formulated using a solution containing 10% acetone, 90% water and 300 ppm X-77® Spreader Lo-Foam Formula non-ionic surfactant containing alkylarylpolyoxyethylene, free fatty acids, glycols and 2-propanol (Loveland Industries, Inc.) to provide the desired concentration in ppm. Formulated test solutions were then applied in 1 mL volumes through a SUJ2 atomizer nozzle with 1/8 JJ custom body (Spraying Systems Co.) positioned 1.27 cm (0.5 inches) above the top of each test unit.
The results for all experimental compositions in this test were replicated three times. After spraying of the formulated test composition, each test unit was allowed to dry for 1 hour and the cap removed. The test units were held for 13 days in a growth chamber at 28° C. and 50-70% relative humidity.

[2] = test system: western flower thrip (Frankliniella occidentalis Pergande)
Experimental: as §1
For evaluating control of the western flower thrip (Frankliniella occidentalis Pergande) through contact and/or systemic means, each test unit consisted of a small open container with a 5- to 7-day-old bean (var. Soleil) plant inside.
Test solutions were formulated and sprayed with 3 replications as described for Test A. After spraying, the test units were allowed to dry for 1 hour, 22 to 27 adult thrips were added to each unit and then a black, screened cap was placed on top. The test units were held for 7 days at 25° C. and 45-55% relative humidity.

[3] = test system: corn planthopper (Peregrines maidis)
Experimental: as §1
For evaluating control of corn planthopper (Peregrines maidis) through contact and/or systemic means, each test unit consisted of a small open cylindrical container with a 3- to 4-day-old corn (maize) plant (spike) inside. White sand was added to the top of the soil prior to application. Test compounds were formulated and sprayed with 3 replications as described for Test A. After spraying, the test units were allowed to dry for 1 hour before they were post-infested with 10 to 20 corn planthoppers (18- to 20-day-old nymphs) by sprinkling them onto the sand with a salt shaker. A black, screened cap was placed on the top of each container. The test units were held for 6 days in a growth chamber at 19-21° C. and 50-70% relative humidity.

| Substance | % mortality (obs) [1] | % mortality (obs) [2] | % mortality (obs) [3] |
| --- | --- | --- | --- |
| Dinotefuran | 74% |  |  |
| Triazamate |  | 90% | 94% |
